Reference: patent US11788044B2, “Rheologically biomimetic fluid surrogate” (EMULATE, INC., priority 2017, dated 2023)

Tested on: iHBMEC barrier function
Experiment: iHBMEC barrier function on BBB-Chip (dextran leakage, tight junctions)
Format: cell-based, human
Details: Puromycin selection, long-term

Q: `COc1ccc(C[C@H](N)C(=O)N[C@H]2[C@@H](O)[C@H](n3cnc4c(N(C)C)ncnc43)O[C@@H]2CO)cc1` [Puromycin] was tested. Which “barrier maintenance or robustness” value did it give?
A: does not seem to contribute to improved barrier maintenance or robustness
